Test results as given in patent US8765166B2, “Drug delivery devices for delivery of ocular therapeutic agents” (Aerie Pharmaceuticals, Inc., priority 2010, dated 2014).

Test: Solubility of active agents
Details: PBS at pH=7.2-7.4
From the text: The active agent may be any active agent suitable to treat the desired condition. […] Examples include, but are not limited to, acetazolamide, dorzolamide HCl, timolol maleate, and ethacrynic acid sodium salt.

With latanoprost arginine salt the solubility class was “moderate solubility”.
